The source of these data is article PMC13482819 (2026).

Sequences and labels used below:
B1: HA-tagged STING (wild type) [human] / Myc-tagged TBK1 [human] (parent complex)
chain 1: MPHSSLHPSIPCPRGHGAQKAALVLLSACLVTLWGLGEPPEHTLRYLVLHLASLQLGLLLNGVCSLAEELRHIHSRYRGSYWRTVRACLGCPLRRGALLLLSIYFYYSLPNAVGPPFTWMLALLGLSQALNILLGLKGLAPAEISAVCEKGNFNVAHGLAWSYYIGYLRLILPELQARIRTYNQHYNNLLRGAVSQRLYILLPLDCGVPDNLSMADPNIRFLDKLPQQTGDHAGIKDRVYSNSIYELLENGQRAGTCVLEYATPLQTLFAMSQYSQAGFSREDRLEQAKLFCRTLEDILADAPESQNNCRLIAYQEPADDSSFSLSQEVLRHLRQEEKEEVTVGSLKTSAVPSTSTMSQEPELLISGMEKPLPLRTDFS
chain 2: MQSTSNHLWLLSDILGQGATANVFRGRHKKTGDLFAIKVFNNISFLRPVDVQMREFEVLKKLNHKNIVKLFAIEEETTTRHKVLIMEFCPCGSLYTVLEEPSNAYGLPESEFLIVLRDVVGGMNHLRENGIVHRDIKPGNIMRVIGEDGQSVYKLTDFGAARELEDDEQFVSLYGTEEYLHPDMYERAVLRKDHQKKYGATVDLWSIGVTFYHAATGSLPFRPFEGPRRNKEVMYKIITGKPSGAISGVQKAENGPIDWSGDMPVSCSLSRGLQVLLTPVLANILEADQEKCWGFDQFFAETSDILHRMVIHVFSLQQMTAHKIYIHSYNTATIFHELVYKQTKIISSNQELIYEGRRLVLEPGRLAQHFPKTTEENPIFVVSREPLNTIGLIYEKISLPKVHPRYDLDGDASMAKAITGVVCYACRIASTLLLYQELMRKGIRWLIELIKDDYNETVHKKTEVVITLDFCIRNIEKTVKVYEKLMKINLEAAELGEISDIHTKLLRLSSSQGTIETSLQDIDSRLSPGGSLADAWAHQEGTHPKDRNVEKLQVLLNCMTEIYYQFKKDKAERRLAYNEEQIHKFDKQKLYYHATKAMTHFTDECVKKYEAFLNKSEEWIRKMLHLRKQLLSLTNQCFDIEEEVSKYQEYTNELQETLPQKMFTASSGIKHTMTPIYPSSNTLVEMTLGMKKLKEEMEGVVKELAENNHILERFGSLTMDGGLRNVDCL

The variants in this assay derive from B1. As to the kind of experiment: co-immunoprecipitation (IP: HA, IB: Myc) with band densitometry; HEK293T cells, co-expression.
Consider chain 1 Y245E, for which the ratio to parent was determined as 7.3.

On to chain 1 Y314E, for which the ratio to parent was found to be 6.4.
